For this assay, the target named is nonphosphorylated Abl kinase (Homo sapiens, UniProt P00519). In words: Abl kinase assay (continuous spectrophotometric, pyruvate kinase/lactate dehydrogenase coupled). The note with it: reference inhibitors, ATP 0.5 mM, 30° C.

Sequences of proteins named here, by UniProt entry; tags and fusion partners are left off.
UniProt P00519, whole entry: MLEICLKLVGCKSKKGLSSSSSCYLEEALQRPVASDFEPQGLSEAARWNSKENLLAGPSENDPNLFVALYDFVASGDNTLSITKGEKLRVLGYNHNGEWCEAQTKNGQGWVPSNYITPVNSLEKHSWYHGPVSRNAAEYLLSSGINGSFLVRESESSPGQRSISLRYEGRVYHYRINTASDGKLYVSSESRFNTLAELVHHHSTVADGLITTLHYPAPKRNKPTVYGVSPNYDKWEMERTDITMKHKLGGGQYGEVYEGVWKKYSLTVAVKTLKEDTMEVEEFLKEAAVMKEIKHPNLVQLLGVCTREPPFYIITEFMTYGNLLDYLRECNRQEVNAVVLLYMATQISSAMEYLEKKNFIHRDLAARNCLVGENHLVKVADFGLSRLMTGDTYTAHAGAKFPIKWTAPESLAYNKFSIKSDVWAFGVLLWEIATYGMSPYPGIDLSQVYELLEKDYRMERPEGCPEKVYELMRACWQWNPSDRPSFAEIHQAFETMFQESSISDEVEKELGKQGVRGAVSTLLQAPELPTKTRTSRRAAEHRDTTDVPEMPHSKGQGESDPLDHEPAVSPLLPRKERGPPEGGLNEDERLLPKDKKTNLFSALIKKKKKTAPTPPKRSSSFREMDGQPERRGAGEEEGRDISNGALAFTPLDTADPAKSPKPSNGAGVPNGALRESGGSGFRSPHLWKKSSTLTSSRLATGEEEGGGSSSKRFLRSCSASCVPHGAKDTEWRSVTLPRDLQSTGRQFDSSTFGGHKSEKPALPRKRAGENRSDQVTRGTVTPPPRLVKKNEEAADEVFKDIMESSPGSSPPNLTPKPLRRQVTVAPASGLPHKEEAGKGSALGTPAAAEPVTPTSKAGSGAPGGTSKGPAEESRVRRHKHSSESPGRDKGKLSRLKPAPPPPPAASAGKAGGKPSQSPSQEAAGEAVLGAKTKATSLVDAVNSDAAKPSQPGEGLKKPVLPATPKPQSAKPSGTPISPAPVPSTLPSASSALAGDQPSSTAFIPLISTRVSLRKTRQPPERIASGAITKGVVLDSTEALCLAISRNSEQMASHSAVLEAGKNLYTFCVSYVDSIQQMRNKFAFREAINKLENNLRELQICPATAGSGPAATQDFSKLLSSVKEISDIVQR

IC50 data for one compound are collected here from patent US7279576B2 (Deciphera Pharmaceuticals, LLC, priority 2002, dated 2007).

By IC50 is commonly meant the concentration that gives 50% inhibition. A higher IC50 goes with lower potency.

On to `Cc1cc(Nc2ncc3cc(-c4c(Cl)cccc4Cl)c(=O)n(C)c3n2)ccc1F`, for which the IC50 is 24 nM.
